Among the data in ChEMBL document CHEMBL1144937, “A specific mechanism of nonspecific inhibition” (J Med Chem, 2003) are inhibition values, retold here.

By UniProt entry, the sequences of proteins in these tests, tags left out. Where a name states a change or a piece, a line headed by the entry shows the natural chain unless it says otherwise.
UniProt P00811: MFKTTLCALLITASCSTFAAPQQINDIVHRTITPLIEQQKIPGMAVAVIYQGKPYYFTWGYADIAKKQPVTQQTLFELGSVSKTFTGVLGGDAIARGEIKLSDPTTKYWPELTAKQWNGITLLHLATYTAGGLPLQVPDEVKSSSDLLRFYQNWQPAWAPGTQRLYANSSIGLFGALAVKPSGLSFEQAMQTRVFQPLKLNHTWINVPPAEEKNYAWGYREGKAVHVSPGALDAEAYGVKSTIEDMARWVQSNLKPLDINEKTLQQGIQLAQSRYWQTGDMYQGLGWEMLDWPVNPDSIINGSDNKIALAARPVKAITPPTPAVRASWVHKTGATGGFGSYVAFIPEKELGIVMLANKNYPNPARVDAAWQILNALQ

Assay [1] has as its target Beta-lactamase (Escherichia coli K-12) (UniProt P00811). The assay can be described thus: Percentage inhibition against beta-Lactamase in the absence of detergent Triton X-100 was determined at a concentration of 100 uM.
Assay [2] shares this target. Description: Percentage inhibition against beta-Lactamase in the presence of detergent 0.01% Triton X-100 was determined at a concentration of 100 uM.

Regarding `COC(=O)C1=C(C)NC(C)=C(C(=O)OCCN(C)Cc2ccccc2)C1c1cccc([N+](=O)[O-])c1` (configuration not stated) [NICARDIPINE], the inhibition (in general, the relative decrease from the control value, in per cent) in assay [1] came to 81%; in assay [2], 33%.
